From patent US20260097126A1, “PHARMACEUTICAL FORMULATIONS AND METHODS FOR THE TREATMENT OF METABOLIC AND LIVER DISORDERS” (priority 2022, published 2026)

Key:
GIP receptor [1] = molecular target: T1, GIP receptor (Homo sapiens, UniProt P48546); experiment: HSA modulated binding assay, GIP receptor
T1 sequence (P48546 22-466): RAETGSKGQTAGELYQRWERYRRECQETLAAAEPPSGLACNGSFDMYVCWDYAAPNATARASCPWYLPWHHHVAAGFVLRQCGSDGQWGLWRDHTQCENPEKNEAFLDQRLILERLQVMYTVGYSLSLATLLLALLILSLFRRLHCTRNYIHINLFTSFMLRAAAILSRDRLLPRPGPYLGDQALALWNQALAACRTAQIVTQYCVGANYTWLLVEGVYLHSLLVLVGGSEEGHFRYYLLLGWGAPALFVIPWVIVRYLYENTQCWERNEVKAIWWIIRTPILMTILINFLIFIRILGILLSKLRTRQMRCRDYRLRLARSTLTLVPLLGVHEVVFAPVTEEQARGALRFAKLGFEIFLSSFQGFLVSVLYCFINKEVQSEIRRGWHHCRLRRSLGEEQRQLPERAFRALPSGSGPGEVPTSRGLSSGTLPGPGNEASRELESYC

[2] = Another pharmacokinetic study using tirzepatide; assay type: in vivo
GIP receptor [3] = molecular target: T1, GIP receptor; experiment: TagLite binding assay, GIP receptor; details: read-out: GIP receptor IC 50

tirzepatide
pIC50 (GIP receptor [1]; 0% human serum albumin, read-out: GIP receptor IC 50, 0% HSA): 6.50
pIC50 (GIP receptor [1]; read-out: GIP receptor IC 50, 2% HSA, 2% human serum albumin): 5.74
half-life ([2]; tirzepatide 0.2 mg/kg in 0.1% bovine serum albumin in phosphate buffered saline solution): 66.2 h
half-life ([2]; tirzepatide 0.2 mg/kg in 40% propylene glycol and 60% 10 mM pH 6 citrate buffer solution): 59.8 h
pIC50 (GIP receptor [3]): 6.73

pIC50: −log10 of the molar value.
